Test results published in patent US20250241301A1, “COMPOSITIONS AND METHODS FOR INHIBITING PATHOGEN GROWTH ON PLANTS AND IMPROVING CROP SAFETY” (priority 2024, published 2025).

System: potato tubers
Test: T2H / hexylene glycol vapor treatment of potato tubers, skin lesion count (Table 9)
Conditions: T2H 0.15 mL/kg alone or in mixture, HG alone 0.45 ml/kg, n = 5 tubers

Substance: hexylene glycol [HG]
- Total No. of Lesions 48 h (Cecile): 10
- Total No. of Lesions 96 h (Cecile): 6
- Total No. of Lesions TOTAL (Cecile): 16
- Total No. of Lesions 48 h (Isabella): 9
- Total No. of Lesions 96 h (Isabella): 1
- Total No. of Lesions TOTAL (Isabella): 10
